Results on 2 molecules are retold here after PubChem BioAssay AID624288 (National Center for Advancing Translational Sciences (NCATS), 2012).

The list shows a part of the results, in another mix than the full data. Results filed as inconclusive are left out. Activity calls are given as the source filed them. The call rests on the fitted dose curve; cell line not stated here.
On the % scale 0 is the no-effect control and ±100 the full control effect.

A short description of the test: qHTS for Antagonists of gsp, the Etiologic Mutation Responsible for Fibrous Dysplasia/McCune-Albright Syndrome: qHTS. Further: nearly all actives have a fitted effect of over 65% in size. Particulars: gsp-mutant cells, cAMP HTRF, 30 min; at 76.9 µM (top of the series). For orientation: qHTS replaces the single test concentration by a dilution series.
Turning to `CCC(=O)N(c1ccccc1)C1(COC)CCN(CCc2cccs2)CC1`, the activity change, negative = inhibition is inactive: 1.18%.

Turning to `CCC(=O)N(c1ccccc1)C1(COC)CCN(CCn2nnn(CC)c2=O)CC1`, the activity change, negative = inhibition was inactive: 1.86%.
